Source: patent US10941152B2, “Pyrazole compounds as modulators of FSHR and uses thereof” (TOCOPHERX, INC., priority 2014, dated 2021)

Amino acid sequences for entries named in this document (tags omitted). Residues count along the entry.
UniProt P23945, 18-695 limits assumed: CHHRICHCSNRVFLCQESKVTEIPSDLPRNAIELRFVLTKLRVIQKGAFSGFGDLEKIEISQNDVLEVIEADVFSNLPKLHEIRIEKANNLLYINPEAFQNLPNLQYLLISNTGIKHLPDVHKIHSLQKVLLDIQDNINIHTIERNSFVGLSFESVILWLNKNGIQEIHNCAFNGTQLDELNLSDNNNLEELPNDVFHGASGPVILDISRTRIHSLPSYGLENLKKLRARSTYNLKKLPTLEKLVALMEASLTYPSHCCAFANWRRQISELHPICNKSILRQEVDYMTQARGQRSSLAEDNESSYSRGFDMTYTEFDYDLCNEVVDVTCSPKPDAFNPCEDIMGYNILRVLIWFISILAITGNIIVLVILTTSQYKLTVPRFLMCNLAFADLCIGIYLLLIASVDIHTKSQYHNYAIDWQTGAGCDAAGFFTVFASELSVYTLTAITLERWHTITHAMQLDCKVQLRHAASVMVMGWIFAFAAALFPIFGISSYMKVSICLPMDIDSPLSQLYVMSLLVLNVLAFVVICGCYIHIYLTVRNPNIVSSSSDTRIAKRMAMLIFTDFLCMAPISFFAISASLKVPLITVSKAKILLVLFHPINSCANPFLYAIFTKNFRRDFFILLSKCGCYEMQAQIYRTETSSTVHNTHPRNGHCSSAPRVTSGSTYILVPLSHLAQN
UniProt P20395, 18-692 limits assumed: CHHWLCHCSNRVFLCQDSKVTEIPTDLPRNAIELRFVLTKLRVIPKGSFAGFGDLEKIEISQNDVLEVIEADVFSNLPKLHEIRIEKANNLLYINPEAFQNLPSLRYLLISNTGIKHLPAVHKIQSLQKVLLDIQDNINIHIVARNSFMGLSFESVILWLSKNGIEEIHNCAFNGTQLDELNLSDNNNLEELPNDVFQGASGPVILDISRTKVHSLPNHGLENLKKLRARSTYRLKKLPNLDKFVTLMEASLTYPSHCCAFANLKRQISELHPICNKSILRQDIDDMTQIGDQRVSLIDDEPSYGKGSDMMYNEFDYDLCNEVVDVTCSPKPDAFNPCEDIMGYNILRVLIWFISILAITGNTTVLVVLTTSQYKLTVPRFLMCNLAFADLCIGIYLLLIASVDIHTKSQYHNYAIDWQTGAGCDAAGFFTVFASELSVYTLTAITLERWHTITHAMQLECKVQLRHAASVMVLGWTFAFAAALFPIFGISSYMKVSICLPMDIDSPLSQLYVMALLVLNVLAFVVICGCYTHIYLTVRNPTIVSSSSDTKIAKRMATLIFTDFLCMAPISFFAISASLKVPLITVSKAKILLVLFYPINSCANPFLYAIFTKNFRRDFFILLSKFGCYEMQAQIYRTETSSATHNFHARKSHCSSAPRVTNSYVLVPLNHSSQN

Assays:
[1] = target: FSHR (Homo sapiens, UniProt P23945); test: EC50 of cyclic AMP production in CHO FSHR cells + EC20 FSH (Assay A); settings: read-out: Assay A; cyclic AMP production in CHO FSHR cells + EC20 FSH (0.265 pM), HTRF
Experimental: Example 24. EC50 of cyclic AMP production in CHO FSHR cells+EC20 FSH (Assay A)
2500 Cho-FSHR-LUC-1-1-43 cells were plated per well in 5 al of phenol red free DMEM/F12+1% FBS. Cells were plated in 384 well, solid white low volume plates (Greiner 784075) by Multidrop. Cells were assayed by adding 100 al of 2×EC20 FSH/IBMX in DMEM/F12+0.1% BSA) by Multidrop to 2 al of test compound stamped in 384 well plates (compounds are diluted 1:50). The final FSH concentration was 0.265 pM, and the final IBMX concentration was 200 μM. The compound plate map was as follows: Column 1: 2 μl of DMSO; Column 2: 2 μl of DMSO; Columns 3-12 and 13-24: 2 μl of test compound, diluted 1:4 in 100% DMSO, or 2 μl of FSH, diluted 1:4 in DMEM/F12+0.1% BSA. The starting concentration for FSH was 50 nM (final concentration was 0.5 nM). Furthermore, Column 23 contained 2 μl of EC100 FSH reference (100×) (diluted in DMEM/F12+0.1% BSA) at a final concentration of 0.5 nM, and Column 24 contained 2 μl of 1 mM AS707664/2 reference compound 2. 5 μl of compound+EC20 FSH mixture were transferred to cell plates (1:2 dilution into 5 μl of cell media) The plates were incubated at 37° C. for 1 h. 10 μl of mixed HTRF (CisBio #62AM4PEC) reagents were added per well and incubated at room temperature for 1 h. The plates were read on Envision using the cAMP HTRF—low volume 384 well protocol. The readout was the calculated fluorescence ratio (665 nm/620 nm). Values given in percent (%) indicate the percental effect (response) at a certain concentration of agonist relative to the maximum response of the FSH standard.

[2] = target: follicle-stimulating hormone (FSH) receptor (Rattus norvegicus, UniProt P20395); test: Rat granulosa EC50 FSH (Assay B); settings: read-out: Assay B
Experimental: Example 25. Rat granulosa EC50 FSH (Assay B)
The assay was performed pursuant to the teaching of Yanofsky et al. (2006) Allosteric activation of the follicle-stimulating hormone (FSH) receptor by selective, nonpeptide agonists (JBC 281(19): 13226-13233, which is incorporated by reference in the disclosure of the invention).

Row | pEC50 [1] | pEC50 [2] | Compound
1 | > 8.00 | < 6.30 | COc1cc2c(cc1-c1nn(C)cc1Br)-c1c(c(C(=O)N(C)C(C)(C)C#N)nn1-c1cc(F)cc(F)c1)CO2
2 | > 8.00 | > 8.00 | COc1cc2c(cc1-c1cncc(C(N)=O)c1)-c1c(c(C(=O)N(C)C(C)(C)C)nn1-c1cc(F)cc(Cl)c1)CO2
3 | > 8.00 | > 8.00 | COc1cc2c(cc1-c1cncc(C(N)=O)c1)-c1c(c(C(=O)N3CCOCC3(C)C)nn1-c1cc(F)cc(Cl)c1)CO2

pEC50: −log10 of the molar value.
